From patent publication US20160169885A1

Legend:
[1] = molecular target: Ac-N-Asp-Gly-Asp-Ala-Gly-Tyr-Ala-Gly-Leu-Arg-Gly-Ala-Gly-diamino-ethyl-Bodipy FL; experiment: cell-based or functional assay
[2] = test system: Ac-N-Asp-Gly-Asp-Ala-Gly-Tyr-Ala-Gly-Leu-Arg-Gly-Ala-Gly-diamino-ethyl-Bodipy FL

| detection limit of the cleavage products in whole rat blood (reaction in 1×PBS, then mixed with inhibitor-treated blood), agarose gel [1] [nM] | Substance | detection level of the protease by cleavage of the substrate, by inspection of the agarose gel, 1×PBS [2] | detection level of the protease by cleavage of the substrate, by inspection of the agarose gel, human plasma [2] | detection limit of the protease by cleavage of the substrate, quantified gel scan, 1×PBS [2] | detection limit of the protease by cleavage of the substrate, quantified gel scan, human plasma [2] |
| --- | --- | --- | --- | --- | --- |
| 20 | bovine pancreatic α-chymotrypsin (from UniProt P00766 1-245) (enzyme) |  |  |  |  |
|  | bovine pancreatic α-chymotrypsin | a detection level of about 20 nM for chymotrypsin | a detection level of about 20 nM for chymotrypsin | a detection limit of about 10 nM (0.02 activity units′/ml) for α-chymotrypsin | a detection limit of about 10 nM (0.02 activity units^1/ml) for α-chymotrypsin |
